In general, EC50 refers to the concentration needed to bring the measured effect to its halfway point.

The experiment deals with human red blood cells (HRBCs). The experiment is classed as cell-based. The note with it: hemolysis assay, read-out: Toxicity (EC50 in µM) HRBCs. The procedure:
Chemicals. […] (Prague, Czech Republic), and Caslo ApS (Kongens Lyngby, Denmark). […] The bacterial stock was stored at -80°C.
Hemolysis assay. Hemolytic toxicity of the peptides was evaluated from their ability to lyse the fresh human red blood cells (HRBCs) collected from the University Hospital (Brno, Czech Republic). To obtain the erythrocyte pellets, the blood samples were centrifuged twice at 700×g and subsequently, once at 1000×g, each for 8 min. at 4 °C, which was followed by thorough washing with PBS. Resuspension of the pellets was done in PBS to obtain 0.5% (vol/vol) RBC suspension. In a well plate with 96 V-shaped bottom wells, the peptides were added in a dilution series from 0.1 to 50 µM concentration. Subsequently, HRBC suspension was added in each well. Negative control wells contained only PBS and HRBC suspension without any peptide (i.e., 0% lysis), and positive control wells included 5 µM melittin in the HRBC suspension. After incubation for 1 h at 37 °C, the well plates were centrifuged at 1000×g for 10 min. at 4 °C. Subsequently, the supernatant was collected in a flat-bottomed well plate and the optical density of the released hemoglobin was measured for each well at 415 nm wavelength. The calculated absorbances from the wells were then normalized against the averaged absorbances of the positive and the negative control wells. […]

Take `CC[C@H](C)[C@H](NC(=O)CN)C(=O)NCC(=O)N[C@@H](C)C(=O)N[C@H](C(=O)N[C@@H](CC(C)C)C(=O)N[C@@H](CCCCN)C(=O)N[C@H](C(=O)N[C@@H](CC(C)C)C(=O)N[C@H](C(=O)N[C@H](C(=O)NCC(=O)N[C@@H](CC(C)C)C(=O)N1CCC[C@H]1C(=O)N[C@@H](C)C(=O)N[C@@H](CC(C)C)C(=O)N[C@H](C(=O)N[C@@H](CO)C(=O)N[C@@H](Cc1c[nH]c2ccccc12)C(=O)N[C@H](C(=O)N[C@@H](CCCCN)C(=O)N[C@@H](CCCNC(=N)N)C(=O)N[C@@H](CCCCN)C(=O)N[C@@H](CCCNC(=N)N)C(=O)N[C@@H](CCC(N)=O)C(=O)N[C@@H](CCC(N)=O)C(N)=O)[C@@H](C)CC)[C@@H](C)CC)[C@@H](C)O)[C@@H](C)O)C(C)C)C(C)C` [melittin, reference compound]: the EC50 was 0.9 µM.

The values are drawn from EP4129319A1, “PORE-FORMING ANTIMICROBIAL PEPTIDES” (priority 2021, dated 2023).
